# Screening data: PubChem, several laboratories
# Most compounds without a hit are left out; they make up all but 4.2% or so of the library.
# MC4R barr agon: agonists of human melanocortin 4 receptor (MC4R) beta-arrestin. U2OS MC4R beta-arrestin complementation, luminescence; percent of melanotan II response, DMSO zero. 0.98% of 360,000 active. activation, % at 8.9 µM. P32245;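 active = activation above a per-plate cutoff, the mean activation of sample wells on that plate plus 3 SD, cut at about 8% in these data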
# UUG fidelity: alters start codon recognition fidelity in yeast; AID 602363; activity score, % at 18.7 µM; 350,000 tested, 0.13% active; S. cerevisiae UUG-firefly luciferase reporter, luminescence/redox ratio;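 active means replicate mean at a twofold rise or more, about +100% in these data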;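 further: firefly luciferase made from a UUG start codon reports start codon fidelity; reporter light over untreated wells divided by growth signal over untreated wells; some hits fall short of that in this replicate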
# MC4R antag cAMP: human MC4R antagonism in cAMP assay; P32245; MC4R-expressing cells, MTII-stimulated cAMP, LANCE TR-FRET; inhibition, % at 6.5 µM; 0.48% of 360,000 active;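 active = inhibition above its plate's cutoff, the mean of tested wells on that plate plus 3 SD, cut at about 29% in these data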;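 also: 0% = Melanotan II alone and 100% = Melanotan II plus saturating MCL0020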
#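 material = U2OS cells stably expressing human melanocortin 4 receptor (MC4R) | also added = Melanotan II challenge | dosing = single nominal compound dose of 6.5 µM | detection = TR-FRET with Eu-cAMP and labeled anti-cAMP, 671 nm | replication = singlicate | timing = compound 30 min, challenge 1 h, detection 1 h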
# NALP1 inh: inhibitors of NALP1 inflammasome in yeast | 0.61% of 280,000 active | S. cerevisiae NALP1/ASC/caspase-1 growth, X-gal OD620, 72 h | inhibition, % at 10 µM; in the data active = inhibition mostly above about 24%, no sharp cut-off; inactive = mostly below about 32%
# HDAC3 inhib: human HDAC3 inhibition; recombinant HDAC3, fluorogenic peptide/trypsin coupled, fluorescence; inhibition, % at 8.3 µM; 0.15% of 320,000 active; AID 2718; in the data active = inhibition above about 26%, passing the limit was not always enough; inconclusive = no clear call, values can overlap the other calls
# ALR H2O2 inh: inhibitors of human sulfhydryl oxidase ALR; P55789; purified ALR, DTT oxidation, H2O2 HRP-luminol luminescence; inhibition, % (test concentration not listed); actives 3.8% (n = 290,000); AID 485317;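 active = mean and each replicate at 75% or more; inconclusive = only one of the two met; inactive = neither met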;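 also: stock transfer was 7.5 nL into about 7.5 µL; 0% = neutral wells and 100% = wells with inactivated enzyme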
# An asterisk follows results filed as active; ? = inconclusive; . = no result given.
# Short forms – A = MC4R barr agon; B = UUG fidelity; C = MC4R antag cAMP; D = NALP1 inh; E = HDAC3 inhib; F = ALR H2O2 inh
C[C@@H]1CN([C@@H](C)CO)C(=O)c2cc(NS(=O)(=O)c3ccc(Cl)cc3)ccc2O[C@@H](C)CCCCO[C@H]1CN(C)S(=O)(=O)c1cn(C)cn1
  A: .	B: -8.6	C: .	D: .	E: .	F: .

CCOC(=O)Cc1csc(SCC(=O)N2CCN(c3ccc(OC)cc3)CC2)n1
  A: -3.0	B: -10.4	C: 0.4	D: 29.3	E: -0.3	F: 87.0*

COc1ccc(N2CCN(C(=O)CSc3ccc(C)cc3)CC2)cc1
  A: 5.1	B: .	C: 1.4	D: -3.2	E: -10.0	F: 0.5

COc1ccc(N2CCN(C(=O)CSc3ncn[nH]3)CC2)cc1
  A: -4.0	B: 0.4	C: 5.5	D: .	E: 4.7	F: 99.1*

C[C@H](CO)N1C[C@H](C)[C@H](CN(C)S(=O)(=O)c2ccccc2)OCCCC[C@H](C)Oc2ccc(NS(=O)(=O)c3cn(C)cn3)cc2C1=O
  A: .	B: -7.6	C: .	D: .	E: .	F: .

O=C(NCC[C@@H]1CC[C@H](NC(=O)C2CCCCC2)[C@H](CO)O1)c1cc(Cl)cc(Cl)c1
  A: .	B: -12.8	C: .	D: .	E: .	F: .

CC(C)NC(=O)NCC[C@@H]1CC[C@@H](NC(=O)CN(C)C)[C@@H](CO)O1
  A: .	B: 16.7	C: .	D: .	E: .	F: .

Cc1ccc(N(CC(=O)Nc2ccccc2C(=O)NCc2ccco2)S(=O)(=O)c2ccccc2)cc1C
  A: -1.1	B: -23.0	C: -2.6	D: 31.4	E: -1.0	F: 96.4*

CC1=NOC(=O)/C1=C\c1ccc(-c2ccc(Br)cc2C(=O)O)o1
  A: -1.6	B: 8.3	C: 27.2	D: 4.0	E: 1.7	F: 88.5*

CCOC(=O)C1CCN(S(=O)(=O)c2ccc3[nH]c(=O)oc3c2)CC1
  A: -0.9	B: -21.0	C: 2.0	D: 40.3*	E: 3.1	F: -2.0

Cc1noc(C)c1NC(=O)Nc1ccc2c(c1)C(=O)N([C@H](C)CO)C[C@@H](C)[C@@H](CN(C)Cc1ccc(C(=O)O)cc1)OCCCC[C@H](C)O2
  A: .	B: 0.7	C: .	D: .	E: .	F: .

O=C(NC1CCCCC1)C(c1ccccc1)N1CCc2ccccc21 (stereo not given)
  A: 0.0	B: -9.4	C: 0.2	D: -9.9	E: 17.4	F: 97.8*

Cc1ccc(S(=O)(=O)Nc2ccc(O)c(Sc3ncn[nH]3)c2)cc1
  A: -3.3	B: -0.1	C: 1.2	D: -4.1	E: 0.1	F: 98.7*

COc1ccc(OC)c(S(=O)(=O)Nc2ccc(O)c(Sc3ncn[nH]3)c2)c1
  A: 0.7	B: -3.7	C: 0.6	D: 10.2	E: 10.9	F: 99.2*

COc1ccc(OC)c(S(=O)(=O)Nc2cccc(O)c2)c1
  A: -3.1	B: -0.8	C: -2.6	D: .	E: 0.9	F: 18.0

Cc1cc(F)ccc1S(=O)(=O)Nc1ccc(O)c(Sc2ncn[nH]2)c1
  A: -1.4	B: 1.6	C: -2.5	D: 13.1	E: -1.7	F: 98.9*

CCOc1ccc(S(=O)(=O)Nc2ccc(O)c(Sc3ncn[nH]3)c2)cc1
  A: 0.5	B: -16.5	C: 24.0	D: -59.6	E: 2.3	F: 99.0*

COc1ccc(CN(C)C[C@@H]2OCCCC[C@@H](C)Oc3ccc(NC(=O)c4ccccc4)cc3C(=O)N([C@H](C)CO)C[C@H]2C)cc1
  A: .	B: 23.7	C: .	D: .	E: .	F: .

CO[C@@H]1CN(C)C(=O)c2cc(NC(C)=O)ccc2OC[C@@H](C)N(CCc2ccccc2)C[C@@H]1C
  A: .	B: 0.9	C: .	D: .	E: .	F: .

Cc1ccc(C)c(S(=O)(=O)Nc2ccc(O)c(Sc3ncn[nH]3)c2)c1
  A: 0.2	B: .	C: 6.5	D: .	E: 0.1	F: 99.0*

# Two compounds from above with just ALR H2O2 inh:
canonical_smiles | ALR H2O2 inh
Cc1ccc(S(=O)(=O)Nc2ccc(O)c(Sc3ncn[nH]3)c2)cc1 | 98.7*
CCOc1ccc(S(=O)(=O)Nc2ccc(O)c(Sc3ncn[nH]3)c2)cc1 | 99.0*

# Other structures follow.
# Short forms – A = MC4R barr agon; B = UUG fidelity; C = MC4R antag cAMP; D = NALP1 inh; E = HDAC3 inhib; F = ALR H2O2 inh
CCCC#Cc1cnc2c(c1)C(=O)N([C@@H](C)CO)C[C@H](C)[C@H](CN(C)C(=O)CN1CCOCC1)O2
  A: .	B: -2.6	C: .	D: .	E: .	F: .

Cc1ccc2c(c1)c1nnc(SCC(=O)Nc3ccc(N(C)C)cc3)nc1n2CC(=O)O
  A: -0.5	B: -7.1	C: -3.6	D: 17.4	E: 0.3	F: 99.9*

Cc1ccc2c(c1)c1nnc(SCC(=O)Nc3cccc(Cl)c3C)nc1n2CC(=O)O
  A: 0.1	B: .	C: 14.6	D: 19.8	E: 3.3	F: -10.4

COCC(=O)Nc1ccc2c(c1)C(=O)N(C)C[C@@H](OC)[C@H](C)CN(Cc1cccc(F)c1)[C@@H](C)CO2
  A: .	B: -4.8	C: .	D: .	E: .	F: .

COc1cc(NC(=O)c2cccnc2)ccc1-c1cc2ccccc2oc1=O
  A: .	B: .	C: .	D: 16.0	E: -0.6	F: 0.2

O=C(Nc1ccc(-c2cc3ccccc3oc2=O)c(Cl)c1)c1cccnc1
  A: -1.1	B: -19.5	C: 12.4	D: 33.4*	E: 0.8	F: 19.6

COc1cc(NC(=O)c2cc(Cl)ccc2Cl)ccc1-c1cc2ccccc2oc1=O
  A: 13.8*	B: -19.1	C: -2.1	D: 14.3	E: -16.0	F: 0.3

C[C@H](CO)N1C[C@H](C)[C@@H](CN(C)S(=O)(=O)c2cn(C)cn2)Oc2ccc(NC(=O)C3CCCCC3)cc2CC1=O
  A: .	B: -12.9	C: .	D: .	E: .	F: .

CN(C)C(=O)c1cccc(-c2ccc3c(c2)[C@H]2[C@H](CCN2C(=O)c2ccc4c(c2)OCO4)[C@@H](CO)N3)c1
  A: .	B: -2.1	C: .	D: .	E: .	F: .

Brc1cc2c(cc1COc1ccc(-c3nn[nH]n3)cc1)OCO2
  A: -1.5	B: -7.4	C: -5.4	D: 31.5	E: -2.7	F: 98.1*

Cc1ccc(S(=O)(=O)N(C)C[C@H]2Oc3ccc(NC(=O)NC(C)C)cc3C(=O)N([C@H](C)CO)C[C@@H]2C)cc1
  A: .	B: 1.9	C: .	D: .	E: .	F: .

CC(Sc1ccc(Cl)cc1)C(=O)N(C)CC(=O)Nc1ccc(N2CCOCC2)cc1 (stereo not given)
  A: -2.0	B: .	C: 6.2	D: .	E: -1.9	F: 92.2*

CC(C)(C)c1ccc(OCCC(=O)Nc2ccc(N3CCOCC3)cc2N2CCOCC2)cc1
  A: 8.6*	B: 8.0	C: 8.9	D: .	E: 5.0	F: 9.4

CC(Oc1ccc(Cl)cc1)C(=O)N(C)CC(=O)Nc1ccc(N2CCOCC2)cc1 (stereo not given)
  A: -2.7	B: -15.8	C: 7.6	D: 19.8	E: 2.2	F: 92.6*

CC(C(=O)NCC1CCCCC1)N(C)CC(=O)Nc1ccc(N2CCOCC2)cc1 (stereo not given)
  A: -1.7	B: .	C: -0.1	D: 7.6	E: 5.1	F: 91.7*

CCOc1cc(N2CCOCC2)c(OCC)cc1NC(=O)COC(=O)CCOc1ccc(C(C)(C)C)cc1
  A: -2.5	B: 2.9	C: 0.8	D: .	E: -4.3	F: -20.6

CN(CC(=O)Nc1ccc(N2CCOCC2)cc1)C(=O)CC(c1ccccc1)c1ccccc1
  A: -0.3	B: 9.3	C: 18.5	D: -1.9	E: 0.1	F: .

CN(C)CC(=O)N[C@@H]1CC[C@H](CCNC(=O)C2CCCC2)O[C@@H]1CO
  A: .	B: 10.0	C: .	D: .	E: .	F: .

COc1ccccc1-c1ccc2c(c1)[C@@H]1[C@@H](CCN1S(=O)(=O)c1ccccc1F)[C@H](CO)N2
  A: .	B: -15.6	C: .	D: .	E: .	F: .

CC(Oc1ccc(F)cc1)C(=O)Nc1ccc(N2CCOCC2)cc1N1CCOCC1 (stereo not given)
  A: -3.0	B: 3.6	C: 8.3	D: .	E: -3.1	F: ?

Cc1ccc(CC(=O)N(C)CC(=O)Nc2ccc(N3CCOCC3)cc2)cc1C
  A: -3.2	B: 0.1	C: 6.8	D: .	E: -0.7	F: 99.4*

CC(Oc1cccc(Cl)c1)C(=O)Nc1ccc(N2CCOCC2)cc1N1CCOCC1 (stereo not given)
  A: -3.1	B: 10.1	C: 23.2	D: .	E: -5.2	F: 97.8*

O=C(CSc1ccc2c(c1)OCCO2)Nc1ccc(N2CCOCC2)cc1
  A: -1.2	B: .	C: 13.3	D: 0.0	E: 8.8	F: 0.6

CC(Sc1ccc2c(c1)OCCO2)C(=O)Nc1ccc(N2CCOCC2)cc1 (stereo not given)
  A: 1.4	B: .	C: 6.8	D: 21.7	E: 0.2	F: 99.0*

O=C(Nc1ccc2c(c1)[C@@H]1C[C@@H](CC(=O)N3CCOCC3)O[C@H](CO)[C@@H]1O2)C1CCOCC1
  A: .	B: -0.5	C: .	D: .	E: .	F: .

# Gathered by group, the entries above containing a tert-butyl group (2)
# Short forms – A = MC4R barr agon; B = UUG fidelity; C = MC4R antag cAMP; D = NALP1 inh; E = HDAC3 inhib; F = ALR H2O2 inh
CC(C)(C)c1ccc(OCCC(=O)Nc2ccc(N3CCOCC3)cc2N2CCOCC2)cc1
  A: 8.6*	B: 8.0	C: 8.9	D: .	E: 5.0	F: 9.4

CCOc1cc(N2CCOCC2)c(OCC)cc1NC(=O)COC(=O)CCOc1ccc(C(C)(C)C)cc1
  A: -2.5	B: 2.9	C: 0.8	D: .	E: -4.3	F: -20.6
